Measurements reported in patent US20230001027A1, “METAL CHELATING AGENTS AND METHODS OF USING THE SAME” (priority 2019, published 2023).
Read-outs that look alike come from different tables or passages of the source.

Experiments:
[1] = 1D ^1H spectrum and ^1H-^13C HSQC the same even after 6 months in solution
[2] = PET, aged rats (retired breeders); cited from earlier work
[3] = 26 month old rats, monitored out to 177 hr

Q: For “Zn-DOTA-alendronate [reference compound]”, which “stability of the complex in solution” value [1] is on record?
A: Its value is “stable”.

Q: Which “uptake in older rats bearing lesions” value (older rats (26 mos) with proven vascular calcification) does the source give for Zr-DOTA-alendronate here?
A: The value was “specific uptake”.

Q: What about the “clearance from young rats” value (young rats (3 mos) bearing no sites of calcium vascularization) of the same substance?
A: The value was “rapidly cleared”.

Q: What about the “stability of the complex in solution” value [1] of the same substance?
A: Its value is “stable”.

Q: Which “uptake in the vascular system” value [2] does the source give for ^64Cu-DOTA-alendronate here?
A: Its value is “no uptake”.

Q: Which heart well visualized [3] does the source give for ^89Zr-DOTA-alendronate here?
A: The heart well visualized was at most 4 h.

Q: And the “retention in the aorta” value [3]?
A: The value was “up to 2 hrs”.

Q: What about the “uptake in the aorta, 26 month old vs 3 month old rat” value (1 hr time point) of the same substance?
A: Its value is 2.4 times.

Q: And the “Regions of interest: Aorta” value (PET, 0 hrs, 3 mos Rat)?
A: The value was 1.64.

Q: And the “Regions of interest: Heart” value (PET, 0 hrs, 3 mos Rat)?
A: The value was 2.86.

Q: What about the “Regions of interest: Kidneys” value (PET, 0 hrs, 3 mos Rat) of the same substance?
A: The value was 5.90.

Q: And the “Regions of interest: Vena cava” value (PET, 0 hrs, 3 mos Rat)?
A: The value was 3.29.

Q: And the “Regions of interest: Aorta” value (PET, 0 hrs, 26 mos Rat)?
A: Its value is 3.05.

Q: And the “Regions of interest: Heart” value (PET, 0 hrs, 26 mos Rat)?
A: The value was 4.49.

Q: And the “Regions of interest: Kidneys” value (PET, 0 hrs, 26 mos Rat)?
A: The value was 6.39.

Q: What about the “Regions of interest: Vena cava” value (PET, 0 hrs, 26 mos Rat) of the same substance?
A: The value was 4.21.

Q: What about the “Regions of interest: Aorta” value (PET, 1 hr, 3 mos Rat) of the same substance?
A: The value was 0.83.

Q: What about the “Regions of interest: Heart” value (PET, 1 hr, 3 mos Rat) of the same substance?
A: Its value is 1.32.

Q: And the “Regions of interest: Kidneys” value (PET, 1 hr, 3 mos Rat)?
A: Its value is 0.96.

Q: What about the “Regions of interest: Vena cava” value (PET, 1 hr, 3 mos Rat) of the same substance?
A: Its value is 1.23.

Q: What about the “Regions of interest: Aorta” value (PET, 1 hr, 26 mos Rat) of the same substance?
A: Its value is 1.98.

Q: And the “Regions of interest: Heart” value (PET, 1 hr, 26 mos Rat)?
A: Its value is 2.74.

Q: And the “Regions of interest: Kidneys” value (PET, 1 hr, 26 mos Rat)?
A: Its value is 1.62.

Q: What about the “Regions of interest: Vena cava” value (PET, 1 hr, 26 mos Rat) of the same substance?
A: Its value is 2.50.

Q: And the “washout from heart, venous flow and kidneys” value (PET, one hour time point, 3 month old and 26 month old rats)?
A: The value was “rapid washout”.

Q: With ^89Zr-oxalate [reference compound] as the substance, how does the “clearance via the kidneys” value (rat, in vivo) read?
A: The value was “rapid clearance”.
